Laboratory results from ChEMBL document CHEMBL4049434, “Radiolabeled Dibenzodiazepinone-Type Antagonists Give Evidence of Dualsteric Binding at the M2 Muscarinic Acetylcholine Receptor” (J Med Chem, 2017).

Chains of the proteins cited; added tags and fusions are not shown.
UniProt P08172, whole entry: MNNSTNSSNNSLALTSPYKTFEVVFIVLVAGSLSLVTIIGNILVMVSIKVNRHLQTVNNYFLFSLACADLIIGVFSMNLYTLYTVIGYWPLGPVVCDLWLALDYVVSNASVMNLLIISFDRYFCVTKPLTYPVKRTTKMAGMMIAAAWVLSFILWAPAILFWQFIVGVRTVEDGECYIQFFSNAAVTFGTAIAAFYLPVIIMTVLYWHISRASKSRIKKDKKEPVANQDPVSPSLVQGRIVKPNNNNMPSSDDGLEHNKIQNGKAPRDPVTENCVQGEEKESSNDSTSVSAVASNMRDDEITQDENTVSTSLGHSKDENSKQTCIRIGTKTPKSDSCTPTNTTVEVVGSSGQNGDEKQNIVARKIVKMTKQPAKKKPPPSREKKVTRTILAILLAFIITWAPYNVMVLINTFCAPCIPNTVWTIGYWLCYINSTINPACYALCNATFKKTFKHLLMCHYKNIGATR

Experiments:
[1] = molecular target: T1, Muscarinic acetylcholine receptor M2 (Homo sapiens, UniProt P08172); test: Displacement of [3H]UR-AP060 from human muscarinic acetylcholine receptor M2 expressed in CHOK9 cell homogenate after 3 hrs by liquid scintillation counting assay
[2] = molecular target: T1, Muscarinic acetylcholine receptor M2; test: Displacement of [3H]NMS from human muscarinic acetylcholine receptor M2 expressed in CHO cells after 60 mins by scintillation counting assay; assay type: cell-based
[3] = molecular target: T1, Muscarinic acetylcholine receptor M2; test: Displacement of [3H]UNSW-MK259 from human muscarinic acetylcholine receptor M2 expressed in CHOK9 cells after 3 hrs by liquid scintillation counting assay; assay type: cell-based

CCCCCCOc1nsnc1C1=CCCN(C)C1 [XANOMELINE]
Ki [1]: 4470 nM | IC50 [2]: 39.8 to 316 nM | Ki [3]: 269 nM
